Source: US20150073033A1, “BIOMARKERS FOR CANCER CHARACTERIZATION AND TREATMENT” (Board of Regents, The University of Texas System, priority 2011, published 2015)

Molecular target: EGFR (Homo sapiens, UniProt P00533)
Assay: EGF-induced EGFR phosphorylation, immunoblotting
Assay type: cell-based
Conditions: U87/EGFR cells; AG1478 1 μM 30 min before EGF 6 h

For `COc1cc2ncnc(Nc3cccc(Cl)c3)c2cc1OC` [AG1478], the “EGF-induced phosphorylation of EGFR” value was “blocked”.
